The numbers were not newly measured in patent US20240131013A1, “TETRAHYDRO-1H-PYRIDO[3,4-b]INDOLE ANTI-ESTROGENIC DRUGS” (Olema Pharmaceuticals, Inc., priority 2015, published 2024), which cites them from elsewhere.

The test system of the data set is PR. The conditions noted are these: De Savi; cited from earlier work.

Take `C[C@@H]1Cc2c([nH]c3ccccc23)[C@@H](c2ccc(/C=C/C(=O)O)cc2)N1CC(C)(C)F` [WO 2014/191726 Example 2]: the “PR antagonism pIC50” value is 8.46 (±0.12).
